Results reported in patent US6908919B2, “Substituted polycyclic aryl and heteroaryl pyrazinones useful for selective inhibition of the coagulation cascade” (Pharmacia Corporation, priority 1999, dated 2005).

Chains of the proteins cited; added tags and fusions are not shown. Residues count along the entry.
UniProt P00742, 41-179 limits assumed: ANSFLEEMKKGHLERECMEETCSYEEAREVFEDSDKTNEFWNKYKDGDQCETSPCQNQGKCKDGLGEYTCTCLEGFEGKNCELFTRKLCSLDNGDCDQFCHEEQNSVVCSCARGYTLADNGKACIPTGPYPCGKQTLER
UniProt P00742, 235-488 limits assumed: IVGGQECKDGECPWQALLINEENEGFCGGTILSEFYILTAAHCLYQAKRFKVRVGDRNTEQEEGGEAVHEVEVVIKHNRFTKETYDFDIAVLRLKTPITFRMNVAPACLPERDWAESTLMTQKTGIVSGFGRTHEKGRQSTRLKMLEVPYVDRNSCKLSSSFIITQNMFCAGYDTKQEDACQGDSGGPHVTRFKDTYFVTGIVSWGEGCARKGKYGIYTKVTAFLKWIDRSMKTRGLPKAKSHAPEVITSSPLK
UniProt P08709, 61-212 limits assumed: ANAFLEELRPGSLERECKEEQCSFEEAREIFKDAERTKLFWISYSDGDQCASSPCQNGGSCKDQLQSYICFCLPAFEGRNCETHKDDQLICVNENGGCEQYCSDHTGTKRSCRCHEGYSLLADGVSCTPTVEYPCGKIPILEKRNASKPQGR
UniProt P08709, 213-466 limits assumed: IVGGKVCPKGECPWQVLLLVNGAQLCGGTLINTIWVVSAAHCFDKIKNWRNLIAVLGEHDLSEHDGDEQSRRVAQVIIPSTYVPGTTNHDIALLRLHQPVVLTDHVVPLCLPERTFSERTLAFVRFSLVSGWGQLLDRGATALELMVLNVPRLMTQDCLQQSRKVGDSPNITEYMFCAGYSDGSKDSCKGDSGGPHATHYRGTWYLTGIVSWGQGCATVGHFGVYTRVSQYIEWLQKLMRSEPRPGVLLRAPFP

Assays:
Human factor Xa = Human factor Xa (Homo sapiens, UniProt P00742); assay: Xa Assay
[1] = target: recombinant soluble tissue factor and recombinant human factor VIIa (TF-VIIa) (Homo sapiens, UniProt P08709); assay: TF-VIIa Assay

| Compound | % Inhibition Factor Xa (30 µM) (Human factor Xa; at 30 µM inhibitor) | % Inhibition TF-VIIa (100 µM) [1] | % Inhibition Factor Xa (100 µM) (Human factor Xa) |
| --- | --- | --- | --- |
| CC(C)Nc1nc(Cl)c(-c2cc(N)cc(C(=O)O)c2)n(CC(=O)NCc2ccc(C(=N)N)cc2)c1=O [Example 123] | 2% |  |  |
| O=C(Cn1c(-c2ccc(-c3ccccc3)cc2)c(Cl)nc(NCCc2cccc(Cl)c2)c1=O)NCCc1ccncc1 [Example E-0051] |  | 0% |  |
| O=C(Cn1c(-c2ccc(-c3ccccc3)cc2)c(Cl)nc(NCCc2ccccc2)c1=O)NCCc1cccnc1 [Example E-0113] |  | 14% | 3% |
